Rows were chosen to be rich in hits. Some 2.1% of all compounds tested hit in one or more screens of this group.
Rev-erbA mod: modulates human Rev-erb alpha binding to DNA. actives 0.79% (n = 370,000). activity, % at 10 µM. Rev-erbα–FITC-DNA binding, fluorescence polarization, 90 min;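 active means activity above about 14%, limit read from the data; passing the limit was not always enough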;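 further: 0% = DMSO wells with 35 nM protein and 100% = DMSO wells with 750 nM protein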
SMARCA2 act: increases SMARCA2 function in MMTV reporter cells; MG213 cells, MMTV-luciferase reporter, dexamethasone, overnight; actives 1% (n = 370,000); AID 652017; activation, % at 9.1 µM; in the data active means activation above about 7.8%;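 further: 0% = vehicle wells and 100% = reference activator wells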
ERp5 block: blocks human ERp5 reductase activity on insulin. Q15084. ERp5 insulin aggregation, absorbance 650 nm, 90 min. inhibition, % at 9.99 µM. actives 0.05% (n = 350,000);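 active means mean replicate inhibition above about 25%, with every replicate also reaching it, limit read from the data, passing the limit was not always enough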
Yeast UUG start: yeast start codon fidelity modulation | S. cerevisiae UUG-firefly luciferase reporter, luminescence/redox ratio | activity score, % at 18.7 µM | 0.13% of 350,000 active | AID 602363;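 active means replicate mean at a twofold rise or more, about +100% in these data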;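 further: firefly luciferase made from a UUG start codon reports start codon fidelity; reporter light over untreated wells divided by growth signal over untreated wells; some hits fall short of that in this replicate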
INS-1E GSIS act: GLuc luminescence reporter in INS-1E cells, primary screen for activators of glucose-dependent secretion of insulin; AID 743287; actives 0.61% (n = 370,000); INS-1E GLuc reporter insulin secretion, 2-3 h; activation, % at 16.6 µM;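 active means lowest replicate activation of at least 40%, so every replicate reaches that level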;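 further: 0% = median of neutral control wells and 100% = median of IBMX positive control wells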
PDI inh: PDI (human) enzyme inhibition. inhibition, % at 10 µM. AID 588391. PDI insulin aggregation turbidity, A650, 90 min. P07237. actives 0.052% (n = 350,000);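 active means mean inhibition across replicates of 30% or more, whatever share of single replicates reach that level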
Active calls of the source: *; · = no result given.

SMILES | Rev-erbA mod | SMARCA2 act | ERp5 block | Yeast UUG start | INS-1E GSIS act | PDI inh
O=[N+]([O-])/C(=C\Nc1ccccc1)S(=O)(=O)c1ccccc1 | -2 | -2 | · | -11 | 52* | -4
COc1ccc(CN2C(=O)c3ccccc3C2c2nnnn2C(C)C)cc1OC (stereo not drawn) | 11 | 7.8* | 1 | · | 24 | ·
COc1ccc(CCN2C(=O)c3ccccc3C2c2nnnn2C(C)C)cc1OC (stereo not drawn) | -2 | -2 | -4 | · | 28 | ·
CC=Cc1ccc2n(c1=O)C[C@@H]1[C@@H](CO)[C@H](C(=O)NC3CCCC3)N(Cc3ccccc3)[C@H]21 (mixture of isomers) | · | · | 6 | · | 8 | ·
C[C@@H]1CN([C@H](C)CO)C(=O)c2cc(C#CC3CCCC3)cnc2O[C@H]1CN(C)C(=O)c1ccncc1 | · | · | 3 | -3 | -6 | ·
C[C@@H]1CN([C@H](C)CO)C(=O)c2cc(-c3ccncc3)cnc2O[C@@H]1CN(C)C(=O)C1CC1 | · | · | · | -1 | 15 | ·
CCCCCCCCCCCCCCC(O)C[N+](C)(CCO)CCO (stereo not drawn) | 2 | -3 | 7 | · | 295* | 24
C[C@@H]1CC2C3C[C@H](F)C4=CC(=O)C=C[C@]4(C)[C@@]3(F)[C@@H](O)C[C@]2(C)[C@@]1(O)C(=O)COC(=O)C(C)(C)C (stereo partly drawn) | -1 | · | · | · | · | ·
CCOc1cccc(-c2c(C(=O)N/N=C/c3ccc(C)o3)nnn2-c2nonc2N)c1 | 3 | -3 | 27* | -8 | 1 | 4
CC(C)c1c(C(=O)N/N=C/c2cccc3ccccc23)nnn1-c1nonc1N | 2 | 3 | 3 | -13 | 75* | 7
C[C@@H]1CN([C@@H](C)CO)C(=O)c2ccccc2-c2ccccc2CO[C@@H]1CN(C)Cc1cccc(C(=O)O)c1 | · | · | · | · | 9 | ·
C[C@@H]1CN([C@@H](C)CO)C(=O)c2cc(NC(=O)Nc3cccc4ccccc34)ccc2O[C@@H](C)CCCCO[C@@H]1CN(C)S(=O)(=O)c1ccccc1 | · | · | 3 | -2 | 18 | ·
C[C@@H]1CN([C@@H](C)CO)C(=O)c2cc(C#CCN(C)C)cnc2O[C@H]1CN(C)Cc1ccc(-c2ccccc2)cc1 | · | · | 0 | -6 | 13 | ·
COc1ccc(C(=O)c2c3ccccc3[n+]([O-])n2CCCN)cc1 | 8 | 0 | 6 | -18 | -1 | -2
Cc1ccc(C(=O)c2c3ccccc3[n+]([O-])n2CCO)cc1 | 2 | 3 | 10 | -13 | 48* | 4
COc1ccc2c3c([nH]c2c1)[C@@H](CO)N(Cc1nccs1)CC31CN(C(=O)C2CC2)C1 | · | · | -1 | · | 13 | ·
Cc1cc2[nH]c3ccccc3c2c(C)n1 | 0 | 1 | 4 | · | 14 | 0
Cc1cc2[nH]c3c4ccccc4nc(C)c3c2cc1C | 3 | -8 | 4 | 19 | 271* | 16
CC(C)OCCCNC(=O)c1c(N)n(/N=C/c2ccccn2)c2nc3ccccc3nc12 | 5 | 0 | · | -1 | 76* | -3
CNc1nc(Sc2ccccc2)cc(C(F)(F)F)n1 | 8 | 7 | 2 | 0 | 51* | -3
CNc1nc(Sc2cccc(C(F)(F)F)c2)cc(C(F)(F)F)n1 | 3 | 3 | -9 | -6 | 11 | -10
Cc1ccc(S(=O)(=O)N(C)C[C@H]2OCc3ccccc3-c3ccccc3C(=O)N([C@H](C)CO)C[C@@H]2C)cc1 | · | · | · | · | -25 | ·
C#CCOCCOCCOCCNc1nc(N2CCN(C(=O)[C@H](CCC(=O)O)n3cc(C(N)CC(C)C)nn3)CC2)nc(N2CCN(C(=O)[C@H](Cc3cc4ccccc4[nH]3)n3cc(C(N)CC(C)C)nn3)CC2)n1 (stereo partly drawn) | · | · | · | 7 | · | 36*
C#CCOCCOCCOCCNc1nc(N2CCN(C(=O)[C@H](CCCCN)n3cc(CC(C)O)nn3)CC2)nc(N2CCN(C(=O)[C@H](Cc3ccc(O)cc3)n3cc(CCO)nn3)CC2)n1 (stereo partly drawn) | 3 | 0 | -1 | -3 | 1 | 14
C#CCOCCOCCOCCNc1nc(N2CCN(C(=O)[C@H](CCCCN)n3cc(CCCC)nn3)CC2)nc(N2CCN(C(=O)[C@H](Cc3ccc(O)cc3)n3cc(CCO)nn3)CC2)n1 | · | · | · | 2 | · | 129*

Entries of single compounds, quoted from the list. Order of values: Rev-erbA mod	SMARCA2 act	ERp5 block	Yeast UUG start	INS-1E GSIS act	PDI inh
CNc1nc(Sc2cccc(C(F)(F)F)c2)cc(C(F)(F)F)n1 in the list: 3	3	-9	-6	11	-10
C#CCOCCOCCOCCNc1nc(N2CCN(C(=O)[C@H](CCCCN)n3cc(CC(C)O)nn3)CC2)nc(N2CCN(C(=O)[C@H](Cc3ccc(O)cc3)n3cc(CCO)nn3)CC2)n1 (stereo partly drawn) in the list: 3	0	-1	-3	1	14
Cc1ccc(S(=O)(=O)N(C)C[C@H]2OCc3ccccc3-c3ccccc3C(=O)N([C@H](C)CO)C[C@@H]2C)cc1 in the list: ·	·	·	·	-25	·

Source: PubChem (several laboratories)
